Experimental data reported in patent US20080260774A1, “Alpha-galactosyl ceramide analogs and their use as immunotherapies” (priority 2007, published 2008).

Tests used:
[1] = test system: syngeneic lung cancer (TC1) cells; assay: Lung cancer model in mice (TC1, IV inoculation); assay type: in vivo; settings: IV 0.1 μg per mouse once per week for four weeks
melanoma (B16) cells = assay: Melanoma (B16) model in mice; settings: IV 0.1 μg per mouse once per week for four weeks
[2] = test system: lung cancer (TC1-GFP-Luciferase); assay: Real time assessment of tumor growth, lung cancer TC1-GFP-Luciferase; settings: IV 0.1 μg per mouse once per week for four weeks
[3] = test system: human monocyte-derived DCs; assay: Maturation of human monocyte-derived dendritic cells; settings: immature human DCs incubated with analog

Row | Structure (SMILES) | survival time of mice bearing TC1 [1] | size of B16 tumors (melanoma (B16) cells) | tumor growth (bioluminescence) [2] | expression levels of surface maturation markers (CD40, CD80, CD83, CD86, HLA-DR) on DCs [3]
1 | CCCCCCCCCCCCCC[C@@H](O)[C@@H](O)[C@H](CO[C@H]1O[C@H](CO)[C@H](O)[C@H](O)[C@H]1O)NC(=O)CCCCCCCCCCc1ccc(-c2ccc(F)cc2)cc1 [C30] | significant increase in the survival time of mice bearing TC1 | significant decrease in the size of the tumors | significant decrease in tumor growth compared with both control and α-GalCer | –
2 | CCCCCCCCCCCCCC[C@@H](O)[C@@H](O)[C@H](CO[C@H]1O[C@H](CO)[C@H](O)[C@H](O)[C@H]1O)NC(=O)CCCCCCCCCCc1ccc(-c2ccccc2)cc1 [C26] | significant increase in the survival time of mice bearing TC1 | significant decrease in the size of the tumors | – | –
3 | CCCCCCCCCCCCCCCCCCCCCCCCCC(=O)N[C@@H](CO[C@H]1O[C@H](CO)[C@H](O)[C@H](O)[C@H]1O)[C@H](O)[C@H](O)CCc1ccccc1 [C13] | – | – | – | significant increase in the expression levels of CD40, CD80, CD83, CD86 and HLA-DR
